## Measured properties of organic chemicals

The melting point is given in degrees Celsius. Boiling points are in °C, nominally at 760 mmHg. logP is the log10 of the octanol-water partition coefficient; higher is more lipophilic. Water solubility is log10 of mol/L, nominally at 25 °C; higher is more soluble. Vapor pressure is log10 of mmHg; the set covers 15 to 30 °C, mostly 20 to 25 °C. fu is the fraction unbound in human plasma, from 0 to 1. Clint is human hepatic intrinsic clearance in µL/min per million cells; 0 means that no clearance was seen.

Listed for COC(=O)[C@H]1[C@H]2C[C@@H]3c4[nH]c5cc(OC)ccc5c4CCN3C[C@H]2C[C@@H](OC(=O)c2cc(OC)c(OC)c(OC)c2)[C@@H]1OC [Reserpine]: logP 3.2 and plasma fu 0.005994 and Clint 12.25 µL/min/10^6 cells. Listed for OCC1CC2CC1C1CCCC21 (centres undefined) [(Octahydro-1H-4,7-methanoinden-5-yl)methanol]: melting point -31 °C and bp 266 °C and log solubility -2.619 (log10 mol/L). The entry for O=C1c2ccccc2C(=O)c2c1ccc1c2[nH]c2ccc3c4ccccc4c(=O)c4ccc1c2c43 [Anthra[2,1,9-mna]naphth[2,3-h]acridine-5,10,15(16H)-trione] lists logP 2.3 and log solubility -5.507 (log10 mol/L). For CC(C)=CCC/C(C)=C/CC/C(C)=C/C=O [(E,E)-Farnesal] the data give melting point 16.7 °C and bp 302 °C and log solubility -5.712 (log10 mol/L) and log VP -2.759 (log10 mmHg). NC(=O)Cc1cccc2ccccc12 [1-Naphthaleneacetamide] is reported with log solubility -3.36 (log10 mol/L) and log VP -8.152 (log10 mmHg). CC/C=C\CCOC(=O)C1CC1 [(3Z)-Hex-3-en-1-yl cyclopropanecarboxylate] is reported with log solubility -2.925 (log10 mol/L) and log VP -1.292 (log10 mmHg). O=C(O)C(F)(F)C(F)(F)C(F)(F)C(F)(F)C(F)(C(F)(F)F)C(F)(F)F [Perfluoro-6-(trifluoromethyl)heptanoic acid] has melting point 1.375 °C and bp 189 °C. The entry for CCOC(=O)[C@@]12C[C@H]1C=CCCCCN(C)C(=O)[C@@H]1C[C@H](Oc3cc(-c4nc(C(C)C)cs4)nc4c(C)c(OC)ccc34)C[C@H]1C(=O)N2 lists melting point 217.9 °C and log solubility -8.671 (log10 mol/L) and log VP -9.837 (log10 mmHg).

CC1=NN(c2cccc(S(=O)(=O)[O-])c2)C(=O)C1/N=N/c1cc(Cl)c(C)cc1S(=O)(=O)[O-].[Ca+2] (stereo partly drawn) [C.I. Pigment Yellow 191] has melting point 320 °C and logP 0.2 and log solubility -3.745 (log10 mol/L). C=CN1CCCC1=O [N-vinyl-2-pyrrolidone] has plasma fu 0.953 and Clint 0 µL/min/10^6 cells. Listed for C[N+](C)(CCCNS(=O)(=O)CCC(F)(F)C(F)(F)C(F)(F)C(F)(F)C(F)(F)C(F)(F)F)CC(=O)[O-] [6:2 Fluorotelomer sulfonamide betaine]: melting point 150 °C and log solubility -4.057 (log10 mol/L). The entry for CCCCCCCCCCCCCCCCCCOC(=O)CCc1cc(C(C)(C)C)c(O)c(C(C)(C)C)c1 [Octadecyl 3-(3,5-di-tert-butyl-4-hydroxyphenyl)propionate] lists log solubility -8.498 (log10 mol/L) and log VP -8.721 (log10 mmHg). The entry for O=c1cccccc1O [Tropolone] lists log solubility -0.475 (log10 mol/L) and log VP -1.709 (log10 mmHg). CCC(C)=CCCC(C)=O [5-Octen-2-one, 6-methyl-] is reported with logP 3.3 and log solubility -2.193 (log10 mol/L). Listed for O=C1COCCN1c1ccc([N+](=O)[O-])cc1 [4-(4-nitrophenyl)morpholin-3-one]: melting point 152 °C and log solubility -2.606 (log10 mol/L) and log VP -6.091 (log10 mmHg). C=CC(=O)OCCN(C)S(=O)(=O)C(F)(F)C(F)(F)C(F)(F)C(F)(F)F [2-(N-Methylperfluorobutylsulfonamido)ethyl acrylate] has melting point 54.7 °C and logP 4.19 and log solubility -5.309 (log10 mol/L) and log VP -2.721 (log10 mmHg).

CCCCOC(=O)CC(CC(=O)OCCCC)(OC(C)=O)C(=O)OCCCC [Acetyl tributyl citrate] is reported with bp 331 °C and logP 4.92 and plasma fu 0.00942. The entry for CCOC(F)(C(F)(F)C(F)(F)C(F)(F)F)C(F)(C(F)(F)F)C(F)(F)F (centres undefined) [3-Ethoxyperfluoro(2-methylhexane)] lists logP 5.875 and log solubility -7.652 (log10 mol/L) and log VP 0.832 (log10 mmHg). Cc1ccccc1NC(=O)c1cc2ccccc2cc1O [2-Naphthalenecarboxamide, 3-hydroxy-N-(2-methylphenyl)-] is reported with logP 2.55 and log solubility -4.623 (log10 mol/L).

The last 3 entries again:

CCCCOC(=O)CC(CC(=O)OCCCC)(OC(C)=O)C(=O)OCCCC [Acetyl tributyl citrate] has bp 331 °C and logP 4.92 and plasma fu 0.00942.
CCOC(F)(C(F)(F)C(F)(F)C(F)(F)F)C(F)(C(F)(F)F)C(F)(F)F (centres undefined) [3-Ethoxyperfluoro(2-methylhexane)] has logP 5.875 and log solubility -7.652 (log10 mol/L) and log VP 0.832 (log10 mmHg).
Cc1ccccc1NC(=O)c1cc2ccccc2cc1O [2-Naphthalenecarboxamide, 3-hydroxy-N-(2-methylphenyl)-] has logP 2.55 and log solubility -4.623 (log10 mol/L).

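These are experimental values that the OPERA curators gathered from public databases to train and test their QSAR models. The files give a single number for a compound and property, which may rest on several reports. Conditions of the individual experiments are not part of the data. A value may pool stereoisomers or salt forms, and the file does not say which form was measured. Some upstream entries may be estimates or bounds without being marked so.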

Values as listed in the OPERA 2.9 repository of K. Mansouri.